This assay addresses human TRPA1 (Homo sapiens, UniProt O75762). The assay can be described thus: TRP channel agonist activity, intracellular Ca2+ imaging, hTRPA1 stably expressing cell line. Type of assay: cell-based. Conditions: AITC 30 μM. From the text:
DNA fragments containing nucleotide sequences encoding amino acid sequences of human TRPA1 (Accession No. NM_007332.3) (hereinafter referred to also as hTRPA1), human TRPV1 (Accession No. NM_080704.4) (hereinafter referred to also as hTRPV1) and human TRPM8 (Accession No. NM_024080.5) (hereinafter referred to also as hTRPM8) were inserted into pcDNA5/TO vectors (Invitrogen) to construct an hTRPA1 expression vector, an hTRPV1 expression vector and an hTRPM8 expression vector, respectively.
T-REx™_293 cells (Invitrogen) were cultured in Dulbecco's modified Eagle medium (DMEM, Nacalai Tesque Inc.) containing 10% fetal bovine serum (FBS, Cytiva) up to 60 to 70% confluent growth in the wells of a 6 well plate. T-REx™-293 cells were transfected with an hTRPA1 expression vector, an hTRPV1 expression vector or an hTRPM8 expression vector by use of Lipofectamine LTX (Invitrogen) in accordance with a manual.
To Dulbecco's modified Eagle medium (DMEM, Nacalai Tesque Inc.) containing 10% fetal bovine serum (FBS, Cytiva), hygromycin B and blasticidin S were added so as to have a concentration of […] and 5 μg/ml, respectively. In this manner, a drug selection medium was prepared. Twenty-four hours after completion of transfection, the medium of the above cells was exchanged with the drug selection medium, and thereafter, the cells were cultured for 7 days while exchanging the medium with a fresh medium every two days. Living cells were subcultured and regarded as hTRPA1 stably expressing cell line, hTRPV1 stably expressing cell line and hTRPM8 stably expressing cell line, respectively.
The day before assay, cells of the individual expressing cell lines were removed from the medium with a trypsin/EDTA solution and seeded in the wells of a 96-well black-well plate with a clear bottom so as to obtain a cell density of 5×10^4 cells to 6×10^4 cells/well. At this time, tetracycline was added to the medium so as to obtain a concentration of 1 μg/ml to induce expression of hTRPA1, hTRPV1 or hTRPM8. Culture was carried out in an incubator at 37° C. for 24 hours to 48 hours and then cells were washed with PBS. […] The cells to be subjected to assay were incubated at 31° C. and a test substance solution (100 μl) was added to the cells for assay by use of Flaxstation3 (Molecular Devices) and fluorescence intensity (excitation wavelength: 490 nm, fluorescence wavelength: 525 nm) was measured every 2 seconds up to 120 seconds. […]
TRP channel activation ability of a test substance was calculated as a relative value based on the activation ability of 10 μM ionomycin to each of TRP channels, in accordance with the following calculation formula. […]

The structures appear in SMILES notation.

In the case of `C=CCN=C=S`, the TRPA1 activation ability entry was “showed TRPA1 activation ability” (in the absence of A-967079, oxylipin compounds 200 μM and 500 μM, Evaluation 5, FIG. 21); “showed TRPA1 activation ability” (in the absence of A-967079, purified oxylipins 100 μM and 500 μM, Evaluation 2, FIG. 18); “did not show TRPA1 activation ability” (in the presence of 1 μM A-967079 (TRPA1 antagonist), oxylipin compounds 200 μM and 500 μM, Evaluation 5, FIG. 21); “did not show TRPA1 activation ability” (in the presence of 1 μM A-967079 (TRPA1 antagonist), purified oxylipins 100 μM and 500 μM, Evaluation 2, FIG. 18).

The values are drawn from patent publication US20260144780A1, “COMPOSITION FOR ENHANCING ADRENOMEDULLIN GENE EXPRESSION” (HOUSE WELLNESS FOODS CORPORATION, priority 2020, published 2026).
